From patent US7045532B2 (Millennium Pharmaceuticals, Inc., priority 1999, dated 2006)

The chains behind the UniProt entries cited, without tags or fusion partners. Residues count along the entry.
UniProt Q9BYF1, 18-739: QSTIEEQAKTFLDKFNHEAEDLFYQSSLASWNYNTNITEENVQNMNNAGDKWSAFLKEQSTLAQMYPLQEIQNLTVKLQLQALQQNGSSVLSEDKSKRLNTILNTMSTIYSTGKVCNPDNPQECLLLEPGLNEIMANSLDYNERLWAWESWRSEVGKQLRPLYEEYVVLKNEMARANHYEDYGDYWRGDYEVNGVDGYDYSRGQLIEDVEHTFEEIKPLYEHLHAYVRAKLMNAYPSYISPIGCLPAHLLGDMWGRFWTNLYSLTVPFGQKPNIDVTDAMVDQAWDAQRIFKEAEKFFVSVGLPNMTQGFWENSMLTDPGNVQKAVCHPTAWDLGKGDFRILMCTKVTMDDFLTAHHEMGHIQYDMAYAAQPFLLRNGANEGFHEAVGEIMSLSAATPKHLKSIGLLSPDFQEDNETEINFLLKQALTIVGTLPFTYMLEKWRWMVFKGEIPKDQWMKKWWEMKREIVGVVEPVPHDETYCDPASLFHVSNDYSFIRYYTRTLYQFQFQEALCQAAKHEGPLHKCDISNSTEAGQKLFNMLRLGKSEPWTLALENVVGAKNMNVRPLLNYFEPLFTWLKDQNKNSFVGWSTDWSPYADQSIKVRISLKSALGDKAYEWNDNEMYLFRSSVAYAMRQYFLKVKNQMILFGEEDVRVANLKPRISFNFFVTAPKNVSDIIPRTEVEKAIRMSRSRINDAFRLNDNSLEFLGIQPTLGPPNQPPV

Assays:
[1] = Effect on appetite: food consumption in ICR mice
ACE-2 = ACE-2 (Homo sapiens, UniProt Q9BYF1); assay: Kinetic constants for ACE-2 hydrolysis of peptides (reversed phase LC); assay type: biochemical; set-up: made in house

In the case of `CC(C)CC(N[C@@H](Cc1cncn1Cc1cc(Cl)cc(Cl)c1)C(=O)O)C(=O)O` (single isomer, unassigned) [HE, 2-[1-Carboxy-2-[3-(3,5-dichloro-benzyl)-3H-imidazol-4-yl]-ethylamino)4-methyl-pentanoic acid], the cumulative food consumption ([1]; 100 mg/kg oral, one hour) is reported as “about 2.22±0.13 g”, the cumulative food consumption ([1]; 100 mg/kg oral, six hours) is reported as “about 5.38±0.41 g” and the cumulative food consumption ([1]; 100 mg/kg oral, three hours) is reported as “about 4.06±0.27 g”.

In the case of `CC(N)Cc1ccccc1` (centres unmarked) [amphetamine, reference compound], the cumulative food consumption ([1]; 3 mg/kg oral, three hours) is reported as “about 1.39±0.07 g”.

With “angiotensin II (1-8) (DRVYIHPF; listed as Homo sapiens) ["identified as preferred ACE-2 substrates"]” the “kcat/Km relative to angiotensin I (1-10)” value (ACE-2) was 500 fold.
